Assay results as given in patent US20090209570A1 (priority 2001, published 2009).

Chains of the proteins cited; added tags and fusions are not shown.
UniProt P33535, whole entry: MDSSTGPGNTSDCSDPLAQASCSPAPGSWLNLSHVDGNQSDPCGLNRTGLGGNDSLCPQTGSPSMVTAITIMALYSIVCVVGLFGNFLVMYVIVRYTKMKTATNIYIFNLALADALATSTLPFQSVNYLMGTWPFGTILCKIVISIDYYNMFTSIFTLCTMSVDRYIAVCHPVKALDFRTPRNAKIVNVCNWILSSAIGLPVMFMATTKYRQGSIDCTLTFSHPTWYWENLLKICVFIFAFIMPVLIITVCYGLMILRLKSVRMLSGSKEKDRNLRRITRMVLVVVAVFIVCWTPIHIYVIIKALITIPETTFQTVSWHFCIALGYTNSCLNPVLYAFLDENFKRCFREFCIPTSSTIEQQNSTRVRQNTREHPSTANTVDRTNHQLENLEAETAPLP

Molecular target: T1, μ-opioid receptors (Rattus norvegicus, UniProt P33535)
T1 construct: from tissue; host or cells: rat brain homogenate
Assay: Opioid receptor binding studies with [3H]DAMGO on rat's brain homogenisates

CO[C@@]12CC[C@H](NCC(=O)O)[C@@H]3Oc4c(O)ccc5c4[C@@]31CCN(C)C2C5 [Compound 3, (4,5α-epoxy-3-hydroxy-14β-methoxy-17-methylmorphinan-6α-ylamino)-acetic acid sesqui(trifluoroacetate)]
Ki: 0.9 nM
